By IC50 is commonly meant the concentration at which inhibition is half-maximal. A lower IC50 goes with greater potency.

Protein sequences, listed by entry. Tags and fused reporters are not part of them. Lines headed by an entry give the natural chain unless they say otherwise; changes in a name come on top.
UniProt P97266, whole entry, looked up: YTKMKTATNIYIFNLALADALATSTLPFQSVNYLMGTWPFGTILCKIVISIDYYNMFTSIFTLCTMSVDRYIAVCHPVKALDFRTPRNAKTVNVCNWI
UniProt P41144: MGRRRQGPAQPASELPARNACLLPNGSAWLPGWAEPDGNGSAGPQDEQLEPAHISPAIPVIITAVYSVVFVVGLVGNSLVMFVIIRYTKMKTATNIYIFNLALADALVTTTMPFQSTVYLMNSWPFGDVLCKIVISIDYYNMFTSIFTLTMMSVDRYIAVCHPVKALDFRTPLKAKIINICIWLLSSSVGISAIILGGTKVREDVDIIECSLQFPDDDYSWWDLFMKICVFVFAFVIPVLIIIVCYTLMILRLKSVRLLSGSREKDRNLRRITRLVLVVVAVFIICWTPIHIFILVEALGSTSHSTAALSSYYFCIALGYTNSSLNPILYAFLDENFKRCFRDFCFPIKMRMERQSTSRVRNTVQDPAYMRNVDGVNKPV

The target of assay [1] is T1, Mu-type opioid receptor (Cavia porcellus, UniProt P97266). Briefly: Inhibitory activity against Opioid receptor mu 1 of guinea pig brain using [3H]DAGO radioligand.
For assay [2], the target named is T2, Kappa-type opioid receptor (Cavia porcellus, UniProt P41144). Briefly: Binding inhibition against Opioid receptor kappa 1 of guinea pig was determined using [3H]ethylketocyclazocine.
Assay [3] concerns the target T1, Mu-type opioid receptor. Put plainly: Inhibitory activity against Opioid receptor mu 1 of guinea pig brain using [3H]DAG0 radioligand.
The target of assay [4] is T1, Mu-type opioid receptor. Put plainly: Inhibitory activity against opioid receptor mu of guinea pig brain using [3H]DAGO radioligand.
For assay [5], the target named is T2, Kappa-type opioid receptor. Put plainly: Binding inhibition against opioid receptor kappa of guinea pig was determined using [3H]ethylketocyclazocine.

In the case of `CN1CCC[C@@]12CCCC[C@@H]2NC(=O)Cc1ccc(Br)cc1`, the IC50 at Mu-type opioid receptor [1] is 720 nM; in assay [2], > 10000 nM.
`CN(C(=O)Cc1ccc(Cl)c(Cl)c1)[C@H]1CCCC[C@@]12CCCN2C`: the IC50 was 87 nM on Mu-type opioid receptor [3] and > 10000 nM in assay [2].
Take `CN1CCC[C@@]12CCCC[C@@H]2NC(=O)CCc1ccccc1`: the IC50 on Mu-type opioid receptor [4] is > 10000 nM; in assay [5], 2800 nM.
With `CN1CCC[C@@]12CCCC[C@@H]2NC(=O)Cc1ccc(Cl)c(Cl)c1`, the IC50 was 250 nM on Mu-type opioid receptor [3] and > 10000 nM in assay [2].
Take `CN1CCC[C@@]12CCCC[C@@H]2NS(=O)(=O)c1ccc(Br)cc1`: the IC50 (on Mu-type opioid receptor [1]; in assay [2]) was > 10000 nM each time.
